Reference: US6455550B1, “N-alkanoylphenylalanine derivatives” (Hoffmann-La Roche Inc., priority 1997, dated 2002)
Read-outs that look alike come from different tables or passages of the source.

Amino acid sequences for entries named in this document (tags omitted). Residues count along the entry.
UniProt P13612, 34-1032: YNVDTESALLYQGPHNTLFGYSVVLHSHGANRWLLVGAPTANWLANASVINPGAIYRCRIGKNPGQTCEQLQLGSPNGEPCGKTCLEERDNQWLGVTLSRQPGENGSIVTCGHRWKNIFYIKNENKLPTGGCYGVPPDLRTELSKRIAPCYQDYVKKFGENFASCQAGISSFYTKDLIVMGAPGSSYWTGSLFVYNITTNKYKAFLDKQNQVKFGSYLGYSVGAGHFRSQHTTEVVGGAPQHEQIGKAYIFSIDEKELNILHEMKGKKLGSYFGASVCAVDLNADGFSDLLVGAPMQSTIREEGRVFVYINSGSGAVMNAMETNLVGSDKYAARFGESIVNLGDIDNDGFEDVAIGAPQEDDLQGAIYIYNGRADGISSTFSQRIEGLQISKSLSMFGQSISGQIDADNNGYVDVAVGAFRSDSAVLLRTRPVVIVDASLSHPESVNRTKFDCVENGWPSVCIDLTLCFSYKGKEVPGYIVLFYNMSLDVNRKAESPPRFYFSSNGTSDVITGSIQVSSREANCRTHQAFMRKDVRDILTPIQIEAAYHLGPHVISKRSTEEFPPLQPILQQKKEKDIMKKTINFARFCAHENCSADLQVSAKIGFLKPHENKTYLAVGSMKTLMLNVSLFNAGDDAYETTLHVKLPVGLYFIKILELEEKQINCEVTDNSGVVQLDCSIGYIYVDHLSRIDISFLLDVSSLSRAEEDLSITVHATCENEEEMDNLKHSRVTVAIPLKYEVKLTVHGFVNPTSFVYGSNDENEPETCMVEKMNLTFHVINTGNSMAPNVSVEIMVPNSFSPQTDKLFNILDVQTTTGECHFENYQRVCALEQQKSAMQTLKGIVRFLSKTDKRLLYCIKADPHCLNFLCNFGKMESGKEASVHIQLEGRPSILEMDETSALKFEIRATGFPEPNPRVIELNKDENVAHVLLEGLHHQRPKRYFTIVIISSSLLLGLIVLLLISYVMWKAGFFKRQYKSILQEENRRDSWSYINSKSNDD

Legend:
[1] = molecular target: T1, VLA-4 (α4β1 integrin) binding to immobilized VCAM-1 (Homo sapiens, UniProt P05556+P13612); assay: VLA-4/VCAM-1 Screening Assay (solid-phase, dual antibody ELISA); details: Ramos cell-derived VLA-4, recombinant human VCAM-1 coated plates, 2 hr at 37° C.
T1 construct: followed by 10 μl of Ramos cell-derived VLA-4; endogenous in cells; host or cells: Ramos cells (VLA-4 preparation derived from the cells)
Protocol: VLA-4 antagonist activity, defined as ability to compete for binding to immobilized VCAM-1 was quantitated using a solid-phase, dual antibody ELISA. VLA-4 (α4β1 integrin) bound to VCAM-1 was detected by a complex of anti-integrin β1 antibody: HRP-conjugated anti-mouse IgG: chromogenic substrate (K-Blue). Initially, this entailed coating 96 well plates (Nunc Maxisorp) with recombinant human VCAM-1 (0.4 μg in 100 μl PBS), sealing each plate and then allowing the plates to stand at 4° C for Å18 hr. […] On the day of assay, all plates were washed twice with VCAM Assay Buffer (200 μl/well of 50 mM Tris-HCl, 100 mM NaCl, 1 mM MnCl2, 0.05% Tween 20; pH 7.4). Test compounds were dissolved in 100% DMSO and then diluted 1:20 in VCAM Assay Buffer supplemented with 1 mg/mL BSA (i.e., final DMSO=5%). […] 100 μl per well of each dilution was added to the VCAM-coated plates, followed by 10 μl of Ramos cell-derived VLA-4. These plates were sequentially mixed on a platform shaker for 1 min, incubated for 2 hr at 37° C. and then washed four times with 200 μl/well VCAM Assay Buffer. 100 μl of mouse anti-human integrin β1 antibody was added to each well (0.6 μg/mL in VCAM Assay Buffer+1 mg/mL BSA) and allowed to incubate for 1 hr at 37° C. At the conclusion of this incubation period, all plates were washed four times with VCAM Assay Buffer (200 μl/well). A corresponding second antibody, HRP-conjugated goat anti-mouse IgG (100 μl per well @1:800 dilution in VCAM Assay Buffer+1 mg/mL BSA), was then added to each well, followed by a 1 hr incubation at room temperature and concluded by three washes (200 μl/well) with VCAM Assay Buffer. Color development was initiated by addition of 100 μl K-Blue per well (15 min incubation, room temp) and terminated by addition of 100 μl Red Stop Buffer per well. […] Results were calculated as % inhibition of total binding (i.e., VLA-4+VCAM-1 in the absence of test compound).

[2] = molecular target: T2, cell-surface VLA-4 (α4β1 integrin) on Ramos cells binding to immobilized VCAM-1 (Homo sapiens, UniProt P05556+P13612); assay: Ramos (VLA-4)/VCAM-1 Cell-Based Screening Assay (cell adhesion); details: Calcein-AM labeled Ramos cells, VCAM-1 coated plates, 45 min at room temperature
T2 construct: Ramos cells bearing cell-surface VLA-4; endogenous in cells; host or cells: Ramos cells (VLA-4); VCAM-1 purified from CHO cell culture media
Text: Calcein-AM was purchased from Molecular Probes Inc.
VLA-4 (α4β1 integrin) antagonist activity, defined as ability to compete with cell-surface VLA-4 for binding to immobilized VCAM-1, was quantitated using a Ramos-VCAM-1 cell adhesion assay. Ramos cells bearing cell-surface VLA-4, were labeled with a fluorescent dye (Calcein-AM) and allowed to bind VCAM-1 in the presence or absence of test compounds.
Initially, this entailed coating 96 well plates (Nunc Maxisorp) with recombinant human VCAM-1 (100 ng in 100 μl PBS), sealing each plate and allowing the plates to stand at 4° C for Å18 hr. The VCAM-coated plates were subsequently washed twice with 0.05% Tween-20 in PBS, and then blocked for 1hr (room temperature) with 200 μl of Blocking Buffer (1% BSA/0.02% thimerosal) to reduce non-specific binding. Following the incubation with Blocking Buffer, plates were inverted, blotted and the remaining buffer aspirated. Each plate was then washed with 300 μl PBS, inverted and the remaining PBS aspirated.
Test compounds were dissolved in 100% DMSO and then diluted 1:25 in VCAM Cell Adhesion Assay Buffer (4 mM CaCl2, 4 mM MgCl2 in 50 mM TRIS-HCl, pH 7.5) (final DMSO=4%). […] 100 μl/well of each dilution was added to the VCAM-coated plates, followed by 100 μl of Ramos cells (200,000 cells/well in 1% BSA/PBS). […] Plates were inverted to remove non-adherent cells, blotted and 300 μl/well PBS added. Plates were again inverted, blotted and the remaining buffer gently aspirated. 100 μl Lysis Buffer (0.1% SDS in 50 mM TRIS-HCl, pH 8.5) was added to each well and agitated for 2 min on a rotary shaking platform.

[3] = IC50 in Ramos Cell Based Assay (nM)

Row | Compound | IC50 ([1]; read-out: IC50) | IC50 [2, 3] | IC50 ([1]; IC50 nM) | IC50 ([2]; read-out: IC50 in Ramos Cell Based Assay)
1 | COc1ccc(CC2(C(=O)N[C@@H](Cc3ccc(NC(=O)c4c(Cl)cccc4Cl)cc3)C(=O)O)CCCCC2)cc1 [Example 47, 4-[[(2,6-Dichlorophenyl)carbonyl]amino]-N-[[1-(4-methoxyphenylmethyl)cyclohexyl]carbonyl]-L-phenylalanine] | 2.5 nM | – | – | –
2 | CC(=O)NCCC1(C(=O)N[C@@H](Cc2ccc(NC(=O)c3c(Cl)cccc3Cl)cc2)C(=O)O)CCCC1 [Example 251] | – | – | 0.37 nM | 9 nM

Further compounds by falling IC50 ([1]; read-out: IC50), results first:

Row | IC50 ([1]; read-out: IC50) | IC50 [2, 3] | IC50 ([1]; IC50 nM) | IC50 ([2]; read-out: IC50 in Ramos Cell Based Assay) | Compound
3 | 1.2 nM | 19 nM | – | – | CNC(=O)N(C)CCC1(C(=O)N[C@@H](Cc2ccc(NC(=O)c3c(Cl)cccc3Cl)cc2)C(=O)O)CCCC1 [Example 201, 4-[[(2,6-Dichlorophenyl)carbonyl]amino]-N-[[1-[2-[[(methylamino)carbonyl](methyl)amino]ethyl]cyclopentyl]carbonyl]-L-phenylalanine]
4 | 0.64 nM | 47 nM | – | – | O=C(Nc1ccc(C[C@H](NC(=O)C2(CCNC(=O)C(F)(F)F)CCCC2)C(=O)O)cc1)c1c(Cl)cccc1Cl [Example 203, 4-[[(2,6-Dichlorophenyl)carbonyl]amino]-N-[[1-[2-[(trifluoroacetyl)amino]ethyl]cyclopentyl]carbonyl]-L-phenylalanine]
5 | 0.33 nM | 27 nM | – | – | CS(=O)(=O)NCCC1(C(=O)N[C@@H](Cc2ccc(NC(=O)c3c(Cl)cccc3Cl)cc2)C(=O)O)CCCC1 [Example 194, 4-[[(2,6-Dichlorophenyl)carbonyl]amino]-N-[[1-[2-[(methylsulfonyl)amino]ethyl]cyclopentyl]carbonyl]-L-phenylalanine]
